Source: patent publication US6770442B2, “Methods for modulating the solubility of synthetic polymers” (Boston Probes, Inc., priority 1998, dated 2004)

Test: UV Tm analysis of unimolecular PNA hairpins (9 bp stem duplex)
Format: physicochemical
Conditions: [1] approx. 7.5 μM; Buf: Tm Buffer (10 mM sodium phosphate, pH 7.0)
Protocol: The five Tm Samples of a dilution series of a particular unimolecular probe to be analyzed were simultaneously examined using a Cary 100 Bio UV-Visible Spectrophotometer (Varian Instruments) equipped with a 6×6 thermostatable multicell block running Win UV Bio application software package. To a 10×10 UV cell (Starna Cells, P/N 21-Q-10) was added a 7.2 mm stir bar and the 2.5 mL of each sample of the dilution series. The stirring accessory was used during all analysis. All samples were thermally denatured and reannealed prior to data collection by having the instrument rapidly ramp the temperature to a point above the melting temperature and then holding that temperature for 5-10 minutes before returning to the starting temperature. The temperature range over which data was collected was varied in response to the expected Tm which was roughly determined during the premelt and prereannealing step. Regardless of the temperature range, the temperature ramp rate for both melting “M” and reannealing “R” was always 0.5°C./min. The absorbance (260 nm, averaged over a 3 second collection) was plotted vs. the temperature of the multicell block.
After the Tm analysis was performed in Tm Buffer, to each cell was added 0.5 μL of 5M MgCl2 to thereby prepare a sample containing 1 mM MgCl2. The dilution effect was considered to be negligible. The Tm analysis was then performed again to determine whether the presence of MgCl2 had any; effect on the Tm of the unimolecular probe.
After the Tm analysis was performed in Tm Buffer and 1 mM MgCl2, to each cell was added 42 μL of saturated NaCl (approximately 6.11 M/L). The dilution effect was again considered to be negligible. The Tm analysis was then performed again to determine whether the presence of approximately 100 mM NaCl had any effect on the Tm of the unimolecular probe.

Row | Tm, melting M | Tm, reannealing R | Substance
1 | 81.6 °C | 80.9 °C | Flu-OEE-ATA-TAT-TGG-CTG-ATC-CAA-TAT-AT-EE-K(dabcyl)-NH2 [P4]
2 | 81.1 °C | 80.4 °C | H-ATA-TAT-TGG-CTG-ATC-CAA-TAT-AT-KK-NH2 [PNAD, reference compound]
3 | 81.6 °C | 81.4 °C | H-OEE-ATA-TAT-TGG-CTG-ATC-CAA-TAT-AT-EEK-NH2 [P4N]
4 | 82.6 °C | 82.3 °C | H-OEE-ATA-TAT-TGG-OO-CCA-ATA-TAT-EEK-NH2 [P3N]
